Data published in patent US11180509B2, “Thiazolidone spiro pyrimidine trione compound, preparation method therefor and uses thereof” (SHANGHAI INSTITUTE OF MATERIA MEDICA, CHINESE ACADEMY OF …, priority 2017, dated 2021).

Assays:
[1] = test system: MRSA, MSSA, MRSE, MSSE, PRSP, and Spy; assay: In vitro antibacterial activity over the whole strain panel, compared with AZD0914; type: cell-based; conditions: against MRSA
Source text: The following strains isolated in clinic were used in antibacterial activity screening in vitro: five strains of methicillin-resistant Staphylococcus aureus or MRSA, five strains of methicillin-sensitive Staphylococcus aureus or MSSA, five strains of methicillin-resistant Staphylococcus epidermidis or MRSE, five strains of methicillin-sensitive Staphylococcus epidermidis or MSSE, three strains of penicillin-resistant Streptococcus pneumoniae or PRSP, and three strains of Streptococcus pyogenes.
The above strains were clinically isolated pathogenic bacteria collected in Sichuan and Beijing in December 2015. They were identified by the collection unit via a VITEK-60 automatic microbiological identification instrument, and then re-identified by conventional methods in the laboratory. […]
The MIC value of each test sample for the tested strain was determined by micro broth dilution method recommended by Performance Standards for Antimicrobial Susceptibility Testing (Twenty-Third Informational Supplement; M02-A11, M07-A9 and M11-A8, 2013) of American Clinical and Laboratory Standards Institute (CLSI). […]
The test bacterial solution was adjusted with physiological saline to a bacterial suspension equivalent to 0.5 Maisson turbidity standard, and diluted 1:100 with MH broth. […] The plate was sealed and placed in a 35-37° C. incubator for 18-20 h, and then the results were determined. […]

[2] = In vivo pharmacokinetics test in mice (oral); parameters: species or system CD-1 mice; conditions: PO 10.0 mg/kg, multiple of the AZD0914 value
Experimental: Healthy female CD-1 mice were randomly divided into five groups and each group comprised three mice. The tested compound was administered orally.
0.030 mL of blood was taken from the orbit of each animal each time and anticoagulated with EDTAK2. The collection time was as follows. PO group: 15 m, 30 mi, 1 h, 2 h, 4 h, 6 h, 8 h, and 24 h after administration of the test compound. The collected blood samples were placed on ice and centrifuged within 30 minutes to separate the plasma (centrifugation conditions: 5000 rpm, 10 minutes, room temperature). The samples were stored at −80° C. before analysis.

[3] = test system: S. aureus MRSA15-3 infected mice; assay: In vivo protection test, systemic infection model (ED50); parameters: species or system Kunming mice; conditions: oral administration
Experimental: Based on the results of the in vitro test, the clinically isolated methicillin-resistant Staphylococcus aureus MRSA15-3 (see Table 6 below) was selected as a candidate test strain for in vivo protection experiments.
Healthy Kunming mice: aged about 4 weeks, 18-22 g, half male and half male, SPF grade.
One day before the infection of the test bacteria, 2-3 single colonies were picked, inoculated into 2 mL of MH broth, and incubated at 37° C. for 6 h. 0.1 ml of such bacterial solution was transferred to 10 mL of MH broth, and incubated at 37° C. for 18 h. This bacterial solution was the original bacterial stock solution. The bacterial stock solution was diluted in proportion with 5% dry yeast solution for future use (freshly prepared on the same day).
Healthy Kunming mice, weighing 18 to 22 grams, were randomly divide into groups and each group comprised 5-10 mice, half male and half male. The above-mentioned bacterial solution with different dilution concentration were taken and injected into the mice intraperitoneally at a dose of 0.5 ml per 20 g mice weight. […] The minimum dose of bacteria that causes 100% death of mice is the minimum lethal dose (MLD), which is used as the infectious bacteria dose in the in vivo protection test. […]

C[C@@H]1CN2c3c(cc4c(N5C[C@@H](C)SC5=O)noc4c3F)CC3(C(=O)NC(=O)NC3=O)[C@H]2[C@H](C)O1 [Compound 3, (2R,4S,4aS)-11-fluoro-2,4-dimethyl-8-((R)-5-methyl-2-oxothiazolin-3-yl)-1,2,4,4a-tetrahydro-2′H,6H-spiro[isoxazole[4,5-g][1,4]oxazine[4,3-a]quinoline-5,5′-pyrimidine]-2′,4′,6′(1′H,3′H)-trione]
in vitro antibacterial activity relative to AZD0914 [1]: about 8 times | AUC0→t relative to AZD0914 [2]: ~16 times) | Cmax relative to AZD0914 [2]: ~12 times)

C[C@@H]1CN2c3c(cc4c(N5C[C@H](C)SC5=O)noc4c3F)CC3(C(=O)NC(=O)NC3=O)[C@H]2[C@H](C)O1 [Compound 2, (2R,4S,4aS)-11-fluoro-2,4-dimethyl-8-((S)-5-methyl-2-oxothiazolin-3-yl)-1,2,4,4a-tetrahydro-2′H,6H-spiro[isoxazole[4,5-g][1,4]oxazine[4,3-a]quinoline-5,5′-pyrimidine]-2′,4′,6′(1′H,3′H)-trione]
in vitro antibacterial activity relative to AZD0914 [1]: about 8 times | in vivo protective effect relative to AZD0914 [3]: four-fold stronger | AUC0→t relative to AZD0914 [2]: ~32 times) | Cmax relative to AZD0914 [2]: ~14 times)
